Laboratory results as given in patent US11766405B2, “Process for the preparation of a freeze-dried pharmaceutical composition containing mitomycin C” (MEDAC GESELLSCHAFT FUR KLINISCHE SPEZIALPRAPARATE MBH, priority 2013, dated 2023).

Assay: HPLC determination of impurities / mitomycin purity, process 2 (UV 254 nm)
Assay type: physicochemical
Details: 89/11 wt.-% tert.-butanol/water, 5° C. with exclusion of light
Protocol: Further, the content of mitomycin C and impurities in the mixtures obtained was determined after 24 hours' storage at room temperature.
Determination of the Content of Mitomycin C and of Impurities by High Pressure Liquid Chromatography
The samples are each diluted to 0.5 mg/ml mitomycin C with N,N-dimethylacetamide. The reference solution contains 0.5 mg/ml mitomycin C in N,N-dimethylacetamide.
Column: YMC-Pack Phenyl 4.6 mm×300 mm, 10 μm […]
Purity determinations according to process 2 were performed at different times.
Solutions of mitomycin C in a mixture of 89 wt.-% tert.-butanol and 11 wt.-% water were prepared. As well as 1.33 mg/g mitomycin C, the solutions also each contained 20 mg/g urea. […]
Solutions of mitomycin C in a mixture of 89 wt.-% tert.-butanol and 11 wt.-% water were prepared. As well as 1.67 mg/g mitomycin C, the solutions also each contained 25 mg/g urea. […]

**Q.** With `CO[C@@]12[C@H](COC(N)=O)C3=C(C(=O)C(C)=C(N)C3=O)N1C[C@@H]1N[C@@H]12` [Mitomycin C, (1aS,8S,8aR,8bS)-6-amino-8-[[(aminocarbonyl)oxy]methyl]-1,1a,2,8,8a,8b-hexahydro-8a-methoxy-5-methyl-azirino[2′,3′:3,4]pyrrolo[1,2-a]indol-4,7-dione] as the molecule, how does the “Mitomycin C purity” value (Example 7 solution: 1.33 mg/g mitomycin C, 20 mg/g urea, t = 5 h) read?
**A.** The value was 99.8%.

**Q.** And the “Mitomycin C purity” value (Example 7 solution: 1.33 mg/g mitomycin C, 20 mg/g urea, t = 22 h)?
**A.** The value was 99.8%.

**Q.** And the “Mitomycin C purity” value (Example 8 solution: 1.67 mg/g mitomycin C, 25 mg/g urea, t = 5 h)?
**A.** The value was 99.8%.

**Q.** What about the “Mitomycin C purity” value (Example 8 solution: 1.67 mg/g mitomycin C, 25 mg/g urea, t = 22 h) of the same molecule?
**A.** The value was 99.5%.

**Q.** What about the “Mitomycin C purity” value (Example 8 solution: 1.67 mg/g mitomycin C, 25 mg/g urea, t = 27 h) of the same molecule?
**A.** The value was 99.5%.
